Target: human melanin concentrating hormone receptor (MCHR1) (Homo sapiens, UniProt Q99705, A5T/E4Q)
Experiment: Radioligand binding assay for assessment of MCHR1 activity
Settings: membranes of HEK-293 cells expressing mutated hMCHR1; competition with [125I]-MCH
Experimental: Compounds of Formula I were initially characterized in an in vitro binding assay to determine their Ki or ability to antagonize binding of a peptide agonist to the human melanin concentrating hormone receptor (MCHR1).
Membranes from stably transfected HEK-293 cells expressing a mutated (E4Q, AST) hMCHR1 receptor were prepared by dounce homogenization and differential centrifugation. Binding experiments were carried out with 0.5-1.0 ug of membrane protein incubated in a total of 0.2 ml in 25 mM HEPES (pH 7.4) with 10 mM MgCl2, 2 mM EGTA, and 0.1% BSA (Binding Buffer) for 90 min. For competition binding assays, reactions were carried out in the presence of with 0.06-0.1 nM [Phe^n, [^125I]Tyr^19]-MCH and increasing concentrations of unlabeled test molecules. Reactions were terminated by rapid vacuum filtration over 96 well-GFC Unifilter plates pre-coated with 0.075 ml binding buffer containing 1% BSA, and washed 3 times with 0.4 ml of Phospho-buffered Saline (pH 7.4) containing 0.01% TX-100. Filters were dried; 0.05 ml microscint 20 was added to each well and radioactivity was subsequently quantified by scintillation counting on a TopCount™ microplate scintillation counter (Packard). Inhibitory constants were determined by nonlinear least squares analysis using a four parameter logistic equation.

Sequences of proteins named here, by UniProt entry; tags and fusion partners are left off.
UniProt Q99705, whole entry E4Q/A5T: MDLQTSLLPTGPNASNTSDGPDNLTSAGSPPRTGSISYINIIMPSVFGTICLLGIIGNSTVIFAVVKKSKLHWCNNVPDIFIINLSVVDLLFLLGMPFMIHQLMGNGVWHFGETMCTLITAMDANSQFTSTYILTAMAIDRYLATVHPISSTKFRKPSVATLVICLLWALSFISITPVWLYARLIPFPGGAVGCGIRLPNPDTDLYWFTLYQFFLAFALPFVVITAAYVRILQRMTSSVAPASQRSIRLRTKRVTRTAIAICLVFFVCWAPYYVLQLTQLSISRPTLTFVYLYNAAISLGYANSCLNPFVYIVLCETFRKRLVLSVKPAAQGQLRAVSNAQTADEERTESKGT

## Cc1cc(OCC(C)(C)O)nc2ccc(-n3ccnc(Sc4ccc(C(F)(F)F)cc4)c3=O)cc12
  Ki: 21 nM

Source: patent US8012984B2, “Substituted pyrazinone melanin concentrating hormone receptor-1 antagonists and methods” (Bristol-Myers Squibb Company, priority 2007, dated 2011)
